In publication PMC5833756, “A novel ruthenium complex with xanthoxylin induces S-phase arrest and causes ERK1/2-mediated apoptosis in HepG2 cells through a p53-independent pathway” (Cell Death & Disease, 2018):

System: AGP-01
Conditions: IC50 HaCAT / IC50 AGP-01

COc1cccc2c1C(=O)c1c(O)c3c(c(O)c1C2=O)C[C@@](O)(C(=O)CO)C[C@@H]3O[C@H]1C[C@H](N)[C@H](O)[C@H](C)O1 [DOX, doxorubicin]
selectivity index (SI): 0.1
